Laboratory results: US10005817B2, “Peptide pharmaceuticals” (EUMEDERIS PHARMACEUTICALS, INC., priority 2012, dated 2018)

The chains behind the UniProt entries cited, without tags or fusion partners.
UniProt P35372, whole entry: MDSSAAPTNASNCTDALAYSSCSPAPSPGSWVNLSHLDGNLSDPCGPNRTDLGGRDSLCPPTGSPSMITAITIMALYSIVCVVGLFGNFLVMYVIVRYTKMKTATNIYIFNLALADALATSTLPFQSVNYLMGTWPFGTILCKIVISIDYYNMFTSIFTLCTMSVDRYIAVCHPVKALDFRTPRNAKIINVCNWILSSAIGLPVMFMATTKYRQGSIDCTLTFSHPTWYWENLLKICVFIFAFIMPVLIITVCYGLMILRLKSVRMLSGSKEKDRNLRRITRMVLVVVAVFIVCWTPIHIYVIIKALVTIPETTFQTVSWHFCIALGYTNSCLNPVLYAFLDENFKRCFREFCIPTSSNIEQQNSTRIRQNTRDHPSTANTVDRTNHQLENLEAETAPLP
UniProt P32300, whole entry: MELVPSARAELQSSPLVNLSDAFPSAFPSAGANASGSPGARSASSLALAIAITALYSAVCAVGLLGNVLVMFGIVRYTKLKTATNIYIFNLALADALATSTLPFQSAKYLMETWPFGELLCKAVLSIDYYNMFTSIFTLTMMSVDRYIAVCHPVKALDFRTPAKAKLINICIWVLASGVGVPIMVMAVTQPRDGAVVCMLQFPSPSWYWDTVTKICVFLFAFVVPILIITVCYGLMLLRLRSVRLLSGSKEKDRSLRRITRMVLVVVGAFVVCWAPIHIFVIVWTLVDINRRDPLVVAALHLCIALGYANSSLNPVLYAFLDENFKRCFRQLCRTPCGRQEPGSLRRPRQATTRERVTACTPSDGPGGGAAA

How the values were obtained:
mu opioid receptor = target: T1, mu opioid receptor (Homo sapiens, UniProt P35372); test: mu opioid receptor cellular assay (MOP), agonist mode, cAMP readout (Cerep); format: cell-based
T1 construct: Cerep
Method: (§1) Compounds were weighed precisely in an amount of approximately 2 mg and assayed in standard cellular assays by the contract research organization Cerep, Inc. (Pullman, Wash.) as executed at their subsidiary, Cerep SA (Le Bois l'Eveque, France). The readout is the amount of cAMP generated in the cells treated with the test compounds, in either agonist or antagonist mode. The assays used were the mu opioid receptor cellular assay (MOP in agonist and antagonist mode), the delta2 opioid receptor cellular assay (DOP in agonist and antagonist mode) and the kappa opioid receptor cellular assay (KOP in agonist and antagonist mode). The assays used are described in Wang, J. B., et al. (1994) FEBS Lett 338: 217-222, Law, P. Y. and Loh, H. H. (1993) Mol Pharmacol 43: 684-693, and Avidor-Reiss, T., et al. (1995) FEBS Lett 361: 70-74. The stimulant for the cells in the DOR antagonist assay was 3×10E-8M DPDPE, a well-accepted DOR literature standard.

delta2 opioid receptor = target: T2, delta2 opioid receptor (Mus musculus, UniProt P32300); test: delta2 opioid receptor cellular assay (DOP), antagonist mode vs DPDPE, cAMP readout; format: cell-based
T2 construct: Cerep
Method: as §1

For CO[C@@H]1O[C@H](C(=O)NCCCC[C@@H](NC(=O)[C@H](Cc2ccccc2)NC(=O)[C@@H]2Cc3ccccc3CN2C(=O)[C@@H](N)Cc2c(C)cc(O)cc2C)C(N)=O)[C@@H](O)[C@H](O)[C@H]1O [EU-A615, Dmt-Tic-Phe-D-Lys(C1-glucuronyl)-Aib-NH2], the EC50 (mu opioid receptor) was 410 nM and the IC50 (delta2 opioid receptor) was 0.31 nM.

Compound CO[C@@H]1O[C@H](C(=O)NCCCC[C@H](NC(=O)[C@H](Cc2ccccc2)NC(=O)[C@@H]2Cc3ccccc3CN2C(=O)[C@@H](N)Cc2c(C)cc(O)cc2C)C(N)=O)[C@@H](O)[C@H](O)[C@H]1O [EU-A178, 2′,6′-dimethyl-L-tyrosyl-L-1,2,3,4-tetrahydroisoquinoline-3-carbonyl-L-phenylalanyl-Nε-(1′-methyl β-D-glucuronyl)-L-lysyl-amide] has an EC50 (mu opioid receptor) of 15 nM.
